According to patent publication US11535851B2, “Reagents for treatment of hepatitis B virus (HBV) infection and use thereof” (priority 2016, dated 2022):
“Also recorded” adds a separate entry of the source.

Assays:
HBV viral transcripts = assay: Liver HBV RNA levels by RT-QPCR in PXB chimeric mouse model; assay type: in vivo; conditions: transcripts corresponding to shmiR-6, shmiR-15 and shmiR-12; FIG. 11
Protocol: (§1) HBV-infected mice treated with saline served as the negative controls. Groups treated with standard of care agents against HBV served as positive controls: entecavir was administered daily at 6 μg/kg or pegylated interferon was given twice weekly at 30 μg/kg. For the anti-HBV ddRNAi treatment groups, ssAAV8-HBV-shRNAx3-v1, scAAV8-HBV-shRNAx3-v1 or ssAAV8-HBV-shmiRx3-v1 was administered once at a dose of 2×10E+13 vg/kg by a low pressure tail vein injection at Day 0. Co-treated animals started daily ETV at Day 1 or were dosed the first time with PEG-IFN on Day 4
(§2) After the completion of blood sampling on Day 91, all the surviving animals were kept under isoflurane anesthesia and sacrificed by cardiac puncture and exsanguination. Once sacrificed, whole livers were harvested from mice and weighed. […] After the incubation, the RNAlater® solution was removed and the liver pieces were stored at −80° C. for subsequent quantification of the various hepatic HBV DNA and RNAs as well as expression levels of recombinant AAV derived shRNA or shmiR RNAs.
Real-time PCR was used to quantitate the liver production of anti-HBV effector RNAi molecules and inhibition of HBV mRNA transcript as described in Examples 5 and 6.
Using primer/probe sets that are located near each of the RNAi-induced cleavage sites, the levels of HBV RNA was assessed by RT-QPCR (FIG. 11). […]

HBV genotype C = assay: Intracellular (liver) HBV DNA by quantitative PCR in PXB chimeric mouse model; assay type: in vivo; conditions: entecavir or pegylated interferon alone; FIG. 12, left panel
Protocol: as §1
as §2, with “exsanguination.” for “exsanguination. Once sacrificed, whole livers were harvested from mice and weighed.”
To determine the level of hepatic HBV DNA following treatment, HBV DNA was extracted from frozen RNAlater®-preserved liver tissue using the DNeasy® Blood & Tissue Kits (Qiagen K. K., Tokyo, Japan). The DNA was dissolved in 200 μL nuclease-free water, after which the concentration of the DNA solution was determined using BioPhotometer 6131 (Eppendorf Co., Ltd., Tokyo, Japan). […]

pegylated interferon: HBV standard of care agent, given twice weekly at 30 μg/kg
HBV RNA levels (liver) (HBV viral transcripts): reduced; also recorded: strong levels of activity
drop in intracellular DNA levels (HBV genotype C): 2 logs
